Test results reported in ChEMBL document CHEMBL1828559, “Synthesis and characterization of high-affinity 4,4-difluoro-4-bora-3a,4a-diaza-s-indacene-labeled fluorescent ligands for human β-adrenoceptors” (J Med Chem, 2011).

Amino acid sequences for entries named in this document (tags omitted).
UniProt P08588, whole entry: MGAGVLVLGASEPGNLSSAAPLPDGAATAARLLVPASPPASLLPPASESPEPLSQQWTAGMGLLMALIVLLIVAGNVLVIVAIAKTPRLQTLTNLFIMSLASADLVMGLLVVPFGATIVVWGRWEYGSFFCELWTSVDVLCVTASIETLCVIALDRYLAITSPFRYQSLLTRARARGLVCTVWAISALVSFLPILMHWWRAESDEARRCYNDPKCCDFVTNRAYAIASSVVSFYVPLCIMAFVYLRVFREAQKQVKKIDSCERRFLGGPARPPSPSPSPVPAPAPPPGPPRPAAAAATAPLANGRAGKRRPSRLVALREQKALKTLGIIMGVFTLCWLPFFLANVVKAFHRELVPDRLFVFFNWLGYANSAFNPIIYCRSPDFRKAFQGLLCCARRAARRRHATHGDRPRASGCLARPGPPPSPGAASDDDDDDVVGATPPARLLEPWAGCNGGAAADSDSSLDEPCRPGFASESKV

Molecular target: Beta-1 adrenergic receptor (Homo sapiens, UniProt P08588)
Assay: Antagonist activity at human beta-1 adrenergic receptor site 1 expressed in cimeterol-stimulated CHO-K1 cells assessed as CRE-SPAP level by […]
Format: functional, cell-based

pKd: 8.37
SMILES: C=CCc1ccccc1OCC(O)CNC(C)C (stereo unspecified) [ALPRENOLOL]

pKd: −log10 of the molar value.
